Measurements published in PubChem BioAssay (NCI).
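Test compounds were applied to cells in 96-well plates for 48 hours at 5 doses. GI50 marks 50% less growth. The concentration for full growth arrest is given as TGI.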

How the values were obtained:
Experiment in all cases: NCI tumour cell line growth inhibition, 48 h
[1] = system: 786-0 renal
[2] = system: A549 NSCLC
[3] = system: ACHN renal
[4] = system: CCRF-CEM leukemia
[5] = system: COLO 205 colon
[6] = system: DLD-1 colon
[7] = system: DMS 114 small cell lung
[8] = system: DMS 273 small cell lung
[9] = system: EKVX NSCLC
[10] = system: HCC-2998 colon
[11] = system: HCT-116 colon
[12] = system: HCT-15 colon
[13] = system: HL-60(TB) leukemia
[14] = system: HOP-62 NSCLC
[15] = system: HT29 colon
[16] = system: IGROV1 ovarian
[17] = system: K-562 leukemia
[18] = system: KM12 colon
[19] = system: KM20L2 colon
[20] = system: LOX IMVI melanoma
[21] = system: LXFL 529 NSCLC
[22] = system: M14 melanoma
[23] = system: M19-MEL melanoma
[24] = system: MALME-3M melanoma
[25] = system: MOLT-4 leukemia
[26] = system: NCI-H226 lung
[27] = system: NCI-H23 lung
[28] = system: NCI-H322M lung
[29] = system: NCI-H460 lung
[30] = system: NCI-H522 lung
[31] = system: OVCAR-3 ovarian
[32] = system: OVCAR-8 ovarian
[33] = system: RPMI-8226 leukemia
[34] = system: RXF 393 renal
[35] = system: SF-268 CNS
[36] = system: SF-295 CNS
[37] = system: SF-539 CNS
[38] = system: SK-MEL-28 melanoma
[39] = system: SK-OV-3 ovarian
[40] = system: SN12C renal
[41] = system: SNB-19 CNS
[42] = system: SNB-75 CNS
[43] = system: SNB-78 CNS
[44] = system: SR leukemia
[45] = system: SW-620 colon
[46] = system: TK-10 renal
[47] = system: U251 CNS
[48] = system: UACC-257 melanoma
[49] = system: UACC-62 melanoma
[50] = system: UO-31 renal

Q: With O=[N+]([O-])c1cc([N+](=O)[O-])c(O)c([N+](=O)[O-])c1.OC1CC2CCN3Cc4cc5c(cc4[C@H](C1O)C23)OCO5 (stereo not given in full) as the compound, how does the GI50 [1] read?
A: > 100 µM

Q: And the TGI [1]?
A: > 100 µM

Q: What about the GI50 [2] of the same compound?
A: > 100 µM

Q: What about the TGI [2] of the same compound?
A: > 100 µM

Q: And the GI50 [3]?
A: > 100 µM

Q: What about the TGI [3] of the same compound?
A: > 100 µM

Q: And the GI50 [4]?
A: > 100 µM

Q: And the TGI [4]?
A: > 100 µM

Q: What about the GI50 [5] of the same compound?
A: > 100 µM

Q: And the TGI [5]?
A: > 100 µM

Q: And the GI50 [6]?
A: > 100 µM

Q: And the TGI [6]?
A: > 100 µM

Q: What about the GI50 [7] of the same compound?
A: > 100 µM

Q: What about the TGI [7] of the same compound?
A: > 100 µM

Q: And the GI50 [8]?
A: > 100 µM

Q: And the TGI [8]?
A: > 100 µM

Q: What about the GI50 [9] of the same compound?
A: > 100 µM

Q: What about the TGI [9] of the same compound?
A: > 100 µM

Q: And the GI50 [10]?
A: > 100 µM

Q: What about the TGI [10] of the same compound?
A: > 100 µM

Q: What about the GI50 [11] of the same compound?
A: > 100 µM

Q: What about the TGI [11] of the same compound?
A: > 100 µM

Q: What about the GI50 [12] of the same compound?
A: > 100 µM

Q: What about the TGI [12] of the same compound?
A: > 100 µM

Q: What about the GI50 [13] of the same compound?
A: > 100 µM

Q: And the TGI [13]?
A: > 100 µM

Q: What about the GI50 [14] of the same compound?
A: > 100 µM

Q: What about the TGI [14] of the same compound?
A: > 100 µM

Q: And the GI50 [15]?
A: > 100 µM

Q: What about the TGI [15] of the same compound?
A: > 100 µM

Q: And the GI50 [16]?
A: > 100 µM

Q: What about the TGI [16] of the same compound?
A: > 100 µM

Q: And the GI50 [17]?
A: > 100 µM

Q: And the TGI [17]?
A: > 100 µM

Q: And the GI50 [18]?
A: > 100 µM

Q: And the TGI [18]?
A: > 100 µM

Q: What about the GI50 [19] of the same compound?
A: > 100 µM

Q: What about the TGI [19] of the same compound?
A: > 100 µM

Q: What about the GI50 [20] of the same compound?
A: > 100 µM

Q: And the TGI [20]?
A: > 100 µM

Q: And the GI50 [21]?
A: > 100 µM

Q: What about the TGI [21] of the same compound?
A: > 100 µM

Q: What about the GI50 [22] of the same compound?
A: > 100 µM

Q: And the TGI [22]?
A: > 100 µM

Q: What about the GI50 [23] of the same compound?
A: > 100 µM

Q: And the TGI [23]?
A: > 100 µM

Q: And the GI50 [24]?
A: > 100 µM

Q: What about the TGI [24] of the same compound?
A: > 100 µM

Q: And the GI50 [25]?
A: > 100 µM

Q: What about the TGI [25] of the same compound?
A: > 100 µM

Q: What about the GI50 [26] of the same compound?
A: > 100 µM

Q: What about the TGI [26] of the same compound?
A: > 100 µM

Q: And the GI50 [27]?
A: > 100 µM

Q: And the TGI [27]?
A: > 100 µM

Q: What about the GI50 [28] of the same compound?
A: > 100 µM

Q: What about the TGI [28] of the same compound?
A: > 100 µM

Q: And the GI50 [29]?
A: > 100 µM

Q: What about the TGI [29] of the same compound?
A: > 100 µM

Q: And the GI50 [30]?
A: > 100 µM

Q: What about the TGI [30] of the same compound?
A: > 100 µM

Q: What about the GI50 [31] of the same compound?
A: > 100 µM

Q: And the TGI [31]?
A: > 100 µM

Q: And the GI50 [32]?
A: > 100 µM

Q: And the TGI [32]?
A: > 100 µM

Q: What about the GI50 [33] of the same compound?
A: > 100 µM

Q: What about the TGI [33] of the same compound?
A: > 100 µM

Q: And the GI50 [34]?
A: > 100 µM

Q: And the TGI [34]?
A: > 100 µM

Q: What about the GI50 [35] of the same compound?
A: > 100 µM

Q: What about the TGI [35] of the same compound?
A: > 100 µM

Q: What about the GI50 [36] of the same compound?
A: > 100 µM

Q: And the TGI [36]?
A: > 100 µM

Q: And the GI50 [37]?
A: > 100 µM

Q: And the TGI [37]?
A: > 100 µM

Q: And the GI50 [38]?
A: > 100 µM

Q: And the TGI [38]?
A: > 100 µM

Q: And the GI50 [39]?
A: > 100 µM

Q: What about the TGI [39] of the same compound?
A: > 100 µM

Q: What about the GI50 [40] of the same compound?
A: > 100 µM

Q: And the TGI [40]?
A: > 100 µM

Q: And the GI50 [41]?
A: > 100 µM

Q: And the TGI [41]?
A: > 100 µM

Q: And the GI50 [42]?
A: > 100 µM

Q: What about the TGI [42] of the same compound?
A: > 100 µM

Q: And the GI50 [43]?
A: > 100 µM

Q: And the TGI [43]?
A: > 100 µM

Q: And the GI50 [44]?
A: > 100 µM

Q: What about the TGI [44] of the same compound?
A: > 100 µM

Q: And the GI50 [45]?
A: > 100 µM

Q: What about the TGI [45] of the same compound?
A: > 100 µM

Q: And the GI50 [46]?
A: > 100 µM

Q: What about the TGI [46] of the same compound?
A: > 100 µM

Q: What about the GI50 [47] of the same compound?
A: > 100 µM

Q: And the TGI [47]?
A: > 100 µM

Q: And the GI50 [48]?
A: > 100 µM

Q: And the TGI [48]?
A: > 100 µM

Q: And the GI50 [49]?
A: > 100 µM

Q: What about the TGI [49] of the same compound?
A: > 100 µM

Q: And the GI50 [50]?
A: > 100 µM

Q: What about the TGI [50] of the same compound?
A: > 100 µM
